Reference: publication PMC8159961, “Exploring protein hotspots by optimized fragment pharmacophores” (Nature Communications, 2021)
Where “and” joins values, the source holds several entries; their conditions need not be identical. Equal entries are not always repeated. Where two headings read alike, the source gives them in different places.

What was measured:
SARS-CoV-2 3CLPro [1] = target: T1, SARS-CoV-2 3CLPro (Severe acute respiratory syndrome coronavirus 2, UniProt P0DTD1); assay: biochemical
SARS-CoV-2 3CLPro [2] = target: T1, SARS-CoV-2 3CLPro
[3] = target: SARS-CoV-2 main protease (3CLPro) (Severe acute respiratory syndrome coronavirus 2, UniProt P0DTD1)
human thrombin = target: T2, human thrombin (Homo sapiens, UniProt P00734); assay: Protease inhibitory assay, chromogenic substrate S-2238; assay type: biochemical; conditions: Thrombin primary screening; substrate 40 µM; cmpd conc 500 µM
T2 construct: human thrombin; purchased Sigma-Aldrich

bovine factor Xa = target: T3, bovine factor Xa (Bos taurus, UniProt P00743); assay: Protease inhibitory assay, chromogenic substrate S-2222; assay type: biochemical; conditions: FactorXa primary screening; substrate 100 µM; cmpd conc 200 µM
T3 construct: bovine factor Xa, Chromogenix, 2 nkat/mL; purchased Chromogenix

SMILES: CS(=O)(=O)c1ccc(N2CCNCC2)cc1 [SX013]
- inhibition at 22.2222 µM (SARS-CoV-2 3CLPro [1]): 41.1%
- inhibition at 66.6667 µM (SARS-CoV-2 3CLPro [1]): 68%
- %Inhibition (SARS-CoV-2 3CLPro [2]; 0.00338702 µM): -4.197% and -6.107% and -5.974% and -5.864%
- %Inhibition (SARS-CoV-2 3CLPro [2]; 0.0101611 µM): -5.593% and -7.452% and -4.846% and -7.237%
- %Inhibition (SARS-CoV-2 3CLPro [2]; 0.0304832 µM): -10.6845% and -8.536% and -5.692% and -6.7273%
- %Inhibition (SARS-CoV-2 3CLPro [2]; 0.274348 µM): -6.182% and -10.0851% and -8.698% and -8.556%
- %Inhibition (SARS-CoV-2 3CLPro [2]; 0.823045 µM): -4.569% and -9.299% and -9.042% and -8.39%
- %Inhibition (SARS-CoV-2 3CLPro [2]; 22.2222 µM): 40.6044% and 44.6499% and 43.8096%
- %Inhibition (SARS-CoV-2 3CLPro [2]; 66.6667 µM): 87.6737% and 78.2348% and 75.7593%
- %Inhibition (SARS-CoV-2 3CLPro [2]; 200 µM): 68.5156% and 81.1843% and 90.4286% and 90.5201%
- X-ray screen result, binding site [3]: located in the active site

SMILES: CS(=O)(=O)c1ccc(N2CCNCC2)cc1 [SX-B1]
- V0 / Vi (human thrombin): 0.95
- V0 / Vi (bovine factor Xa): 0.95
